Only some compounds are listed: those with a hit (about 1.3% of all), similar ones and a draw of the others.
SR-BI uptake up – SR-BI HDL lipid transfer activation; CHO ldlA[mSR-BI] cells, DiI-HDL uptake fluorescence, 3 h; 100 = double the neutral-control signal; activation, % at 12.5 µM; 0.096% of 320,000 active;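 active = mean replicate activation of at least 60% and every replicate at or above 60%; inconclusive = mean or all-replicate condition met, but not both; inactive = mean below 60% and not all replicates reaching 60%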;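 note: 0% = median plate neutral-control signal and 100% = twice that signal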
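Test system: SR-BI-overexpressing, LDLR-lacking CHO cells. Measured by: DiI fluorescence, bottom read. Medium: Ham's F12 with 0.5% BSA, HEPES 25 mM, pH 7.4. Timing: 3 h uptake period with compound, 37 °C.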
GSIS activator – GLuc luminescence reporter in INS-1E cells, primary screen for activators of glucose-dependent secretion of insulin. INS-1E GLuc reporter insulin secretion, 2-3 h. activation, % at 16.6 µM. 0.61% of 370,000 active. AID 743287;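 active = lowest replicate activation of at least 40%, so every replicate reaches that level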;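 note: 0% = median of neutral control wells and 100% = median of IBMX positive control wells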
SR-BI HDL uptake – inhibitors of mouse SR-BI mediated HDL lipid uptake | Q61009 | ldlA[mSR-BI] CHO cells, DiI-HDL uptake fluorescence, 3 h | inhibition, % at 12.5 µM | 0.96% of 320,000 active | AID 488896;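 active = mean replicate inhibition of at least 70% and a set share of replicates each scoring 70 or more; inconclusive = meets just one of the two criteria; inactive = fails both criteria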;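 note: 0% = median of neutral control wells and 100% = median of positive control wells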
UUG fidelity – modulators of start codon recognition fidelity in yeast. S. cerevisiae UUG-firefly luciferase reporter, luminescence/redox ratio. activity score, % at 18.7 µM. 0.13% of 350,000 active. AID 602363;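 active = replicate mean at a twofold rise or more, about +100% in these data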;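 also: firefly luciferase made from a UUG start codon reports start codon fidelity; reporter light over untreated wells divided by growth signal over untreated wells; some hits fall short of that in this replicate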
* = called active by the depositor; ? = inconclusive; · = not tested or not shown; + = active, no number.

Each structure is followed by: SR-BI HDL uptake, GSIS activator, UUG fidelity, SR-BI uptake up
O=C(CN1CCOCC1)NCC[C@H]1CC[C@H](NS(=O)(=O)c2ccc(F)cc2)[C@@H](CO)O1
 : ·, 20.6, ·, ·
CCCCN(CC)CCNC(=O)c1cc2c(=O)[nH]c3ccccc3c2s1
 : 87.8*, 16.5, -27.4, -87.8
CCCN(CCC)CCCNC(=O)c1cc2c(=O)[nH]c3ccccc3c2s1
 : 34.5, -11.0, -6.9, -34.5
Cc1ccc(COn2c(-c3ccc(Cl)cc3)nc3ccc([N+](=O)[O-])cc32)cc1
 : 17.6, ·, -24.7, -17.6
O=[N+]([O-])c1ccc2nc(-c3ccc(Cl)cc3)n(OCc3ccccc3)c2c1
 : 80.7*, ·, -12.2, -80.7
C[C@H](CO)N1C[C@H](C)[C@@H](CN(C)Cc2ccc(C(=O)Nc3ccccc3N)cc2)Oc2c(NC(=O)c3nc4ccccc4s3)cccc2C1=O
 : ·, 13.9, -1.1, ·
COc1ccc(-c2ccc([C@@H]3[C@@H](CO)N4CCCCN(C(=O)c5ccc6c(c5)OCO6)C[C@@H]34)cc2)cc1
 : ·, -36.3, 19.5, ·
CC[C@@H](C)[C@H](CNC)NC[C@@H](Cc1cccc2ccccc12)NCCc1cccc(C(F)(F)F)c1
 : -38.0, +, -15.5, 38.0
CNC[C@@H](CC1CCCCC1)NC[C@H](CC(C)C)NCCc1cccc(C(F)(F)F)c1
 : -22.7, 480.2*, 7.8, 22.7
CNC[C@@H](Cc1ccccc1)NC[C@@H](CC1CCCCC1)NCCCc1ccccc1
 : -16.9, 88.9*, -14.2, 16.9
CCC[C@@H](CNC)NC[C@H](Cc1ccccc1)NCCCCc1ccccc1
 : -53.4, -7.0, -7.6, 53.4
CCCNC(=O)N1C[C@H](C)[C@H](OC)CN(C)C(=O)c2ccc(NC(C)=O)cc2OC[C@H]1C
 : ·, 8.4, ·, ·
CCOc1ccc(/C=C2\SC(=S)N(NS(=O)(=O)c3ccccc3)C2=O)cc1OC
 : ·, 62.3*, ·, ·
CCOc1ccc(/C=C2\SC(=S)N(NS(=O)(=O)c3ccc(C)cc3)C2=O)cc1OC
 : -15.6, 41.9*, -12.9, 15.6
C[C@@H]1CN([C@H](C)CO)C(=O)c2cc(Br)cnc2O[C@@H]1CN(C)CC1CCOCC1
 : ·, ·, 1.8, ·
CC(=O)Nc1sc(N/N=C\c2cccc(Cl)c2)nc1-c1cccs1
 : 28.0, 68.5*, ·, -28.0
CC(=O)Nc1sc(N/N=C\c2ccc(O)cc2)nc1-c1cccs1
 : ·, -21.2, ·, ·
COc1cc(C(=O)Oc2cc(C)cc(C)c2)cc(OC)c1OC
 : 77.5*, ·, -6.2, -77.5
Cn1nc(C(F)(F)F)c2cc(C(=O)Nc3ccc(F)c(Cl)c3)sc21
 : ?, 15.4, ·, -72.8
Cn1nc(C(F)(F)F)c2cc(C(=O)Nc3ccc(F)cc3)sc21
 : 75.7*, -1.6, ·, -75.7
Cn1nc(C(F)(F)F)c2cc(C(=O)Nc3ccc(C(F)(F)F)cc3)sc21
 : 84.1*, 5.7, ·, -84.1
CC1(C)CC(CC(=O)NC(=S)Nc2ccc([N+](=O)[O-])cc2)C(=O)O1 (stereo unspecified)
 : 89.5*, ·, -11.2, -89.5
Cc1ccc(NC(=S)NC(=O)CC2CC(C)(C)OC2=O)cc1 (stereo unspecified)
 : -30.6, 3.6, 7.5, 30.6
Cc1ccc(-n2nc(C)cc2Nc2ncc(Cl)cc2Cl)cc1
 : 81.5*, 16.0, 1.1, -81.5
Cc1cccc2c1-c1sc(C(=O)Nc3cccc([N+](=O)[O-])c3C)cc1CO2
 : 72.6*, 0.0, ·, -72.6
Cc1cccc2c1-c1sc(C(=O)Nc3nccs3)cc1CO2
 : 66.4, -7.3, -9.8, -66.4
Cc1c(Cl)sn(-c2ccc(Cl)cc2)c1=O
 : 72.2*, -22.9, -9.6, -72.2
CCC(=O)N[C@H]1C=C[C@@H](CC(=O)NCCN2CCCCC2)O[C@H]1CO
 : ·, -2.6, -17.3, ·
C/C(=N\NC(N)=S)C1(C)CCCCC1
 : 77.9*, 9.1, -16.3, -77.9
C/C(=N\NC(N)=O)C1(C)CCCCC1
 : -10.8, 12.2, -10.0, 10.8

3 structures out of the list, arranged by molecular weight, rising:
Each structure is followed by: SR-BI HDL uptake, GSIS activator, UUG fidelity, SR-BI uptake up
Cn1nc(C(F)(F)F)c2cc(C(=O)Nc3ccc(F)cc3)sc21
 : 75.7*, -1.6, ·, -75.7
CC1(C)CC(CC(=O)NC(=S)Nc2ccc([N+](=O)[O-])cc2)C(=O)O1 (stereo unspecified)
 : 89.5*, ·, -11.2, -89.5
CCOc1ccc(/C=C2\SC(=S)N(NS(=O)(=O)c3ccccc3)C2=O)cc1OC
 : ·, 62.3*, ·, ·

More structures
Each structure is followed by: SR-BI HDL uptake, GSIS activator, UUG fidelity, SR-BI uptake up
CCCCN(CCCNC(=S)NCCCc1cnc[nH]1)c1ccc(Br)cn1
 : ·, 72.5*, -16.5, ·
O=C(Nc1sc2c(c1C(=O)NC1CCCCC1)CCC2)c1ccco1
 : 74.7*, -2.8, -2.2, -74.7
CC(C)n1cc(/C=C2\NC(=O)N(c3cccc(Cl)c3)C2=O)c2ccccc21
 : 97.8*, 7.5, -16.8, -97.8
Cc1ccc(C(C)C)c(OCc2ccc(C(=O)N/N=C/c3ccc(O)cc3O)cc2)c1
 : 129.4*, ·, ·, -129.4
CCOC(=O)c1sc(N)nc1C(C)C
 : -14.1, ·, -17.5, 14.1
CCCc1nc(N)sc1C(=O)OCC
 : 5.0, 112.1*, -3.3, -5.0
C[C@@H]1CN([C@@H](C)CO)C(=O)c2cc(NS(=O)(=O)c3ccc(F)cc3)ccc2O[C@@H](C)CCCCO[C@@H]1CN(C)C(=O)Nc1ccccc1
 : ·, -1.5, -1.3, ·
Nc1nc2nc(-c3cccs3)cc(C(F)(F)F)n2n1
 : -5.7, 22.0, ·, 5.7
CCOC(=O)c1nc2nc(-c3cccs3)cc(C(F)(F)F)n2n1
 : 13.2, 63.4*, -3.2, -13.2
O=C(O)c1ccc(OS(=O)(=O)c2cccc(C(F)(F)F)c2)cc1
 : -24.4, 72.6*, -9.4, 24.4
O=C(COc1ccc(C(=O)O)cc1)Nc1cccc(C(F)(F)F)c1
 : -12.8, 14.0, ·, 12.8
C[C@@H]1CCCCO[C@H](CN(C)C(=O)Nc2ccccc2)[C@@H](C)CN([C@@H](C)CO)C(=O)c2cc(NC(=O)CCCN(C)C)ccc2O1
 : ·, 23.8, 6.7, ·
CCNc1nc(NCC)nc(OCCOC(C)=O)n1
 : -17.3, 34.2, -9.9, 17.3
CCNc1nc(ON=C(C)C)nc(N(C)C)n1
 : -64.1, 12.8, -22.0, 64.1*
COc1ccc(/C=N/Nc2nc(-c3ccc(Cl)cc3)cc(C(F)(F)F)n2)c(OC)c1
 : 80.4*, 76.0*, ·, -80.4
CCCC#Cc1cnc2c(c1)C(=O)N([C@H](C)CO)C[C@@H](C)[C@@H](CN(C)C(=O)CN1CCOCC1)O2
 : ·, 10.6, ·, ·
CCOCC(=O)OCC(=O)NC12CC3CC(CC(C3)C1)C2
 : -18.5, 0.0, ·, 18.5
CCOC(=O)C(=O)NC12CC3CC(CC(C3)C1)C2
 : -63.1, 10.4, ·, 63.1*
O=C(c1ccccn1)N1CC[C@@H]2[C@@H](CO)Nc3ccc(-c4ccc(F)cc4)cc3[C@@H]21
 : ·, 5.2, 14.0, ·
COc1ccc(CCn2ccc(O)c(Cc3c(F)cccc3Cl)c2=O)cc1OC
 : 25.4, 42.7*, ·, -25.4
C[C@H]1CC(=O)NCC/C=C\C[C@H](c2ccc3c(c2)OCO3)NC1=O
 : ·, -1.2, ·, ·
CC1CCC(C(C)C)C(OC(=O)Cn2c(-c3ccc(Br)cc3)[n+](C)c3ccccc32)C1 (stereo unspecified)
 : 3.8, 275.3*, 5.1, -3.8
CC1CCC(C(C)C)C(OC(=O)Cn2c(-c3ccc(Cl)cc3)[n+](C)c3ccccc32)C1 (stereo unspecified)
 : 13.7, 88.4, 12.2, -13.7
Cc1ccccc1OCc1n(CC(=O)OC2CC(C)CCC2C(C)C)c2ccccc2[n+]1C (stereo unspecified)
 : 34.1, 77.2*, ·, -34.1
C[C@H](CO)N1C[C@H](C)[C@@H](CN(C)C(=O)CN(C)C)Oc2cc(C#Cc3ccc(F)cc3)ccc2S1(=O)=O
 : ·, -1.9, 6.7, ·
CCC(C)c1ccccc1OCCCN(C)Cc1ccccc1 (stereo unspecified)
 : -3.6, 192.1*, 4.6, 3.6
COc1ccc(OCCCN(C)Cc2ccccc2)cc1
 : -18.9, 19.7, -25.5, 18.9

Structures from the list above that have a nitro group on carbon:
Each structure is followed by: SR-BI HDL uptake, GSIS activator, UUG fidelity, SR-BI uptake up
Cc1ccc(COn2c(-c3ccc(Cl)cc3)nc3ccc([N+](=O)[O-])cc32)cc1
 : 17.6, ·, -24.7, -17.6
O=[N+]([O-])c1ccc2nc(-c3ccc(Cl)cc3)n(OCc3ccccc3)c2c1
 : 80.7*, ·, -12.2, -80.7
CC1(C)CC(CC(=O)NC(=S)Nc2ccc([N+](=O)[O-])cc2)C(=O)O1 (stereo unspecified)
 : 89.5*, ·, -11.2, -89.5
Cc1cccc2c1-c1sc(C(=O)Nc3cccc([N+](=O)[O-])c3C)cc1CO2
 : 72.6*, 0.0, ·, -72.6
